Source: ChEMBL document CHEMBL2321648, “Structure-based discovery of pyrazolobenzothiazine derivatives as inhibitors of hepatitis C virus replication” (J Med Chem, 2013)

Key:
[1] = Selectivity index, ratio of CC50 for human HuH5.2 cells to EC50 for Hepatitis C virus subtype 1b; format: toxicity; settings: read-out: Ratio CC50/EC50
In short: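 Ratio of CC50 (MTS, 72 h) to EC50 (luciferase replicon read-out), both measured in parallel in Huh 5-2 replicon cells.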

Hepatitis C virus [2] = experiment: Binding affinity to Hepatitis C virus (isolate Con1) NS5B […] by surface plasmon resonance analysis; design: species or system Hepacivirus hominis
Hepatitis C virus [3] = experiment: Inhibition of N-terminal His-tagged recombinant Hepatitis C virus subtype 1b NS5B Cdelta21 RNA dependent RNA polymerase expressed in Escherichia coli by liquid scintillation counting analysis
In short: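 Dose-response with 8–12 concentrations, in duplicate in two independent experiments. IC50 obtained by nonlinear regression, means ± SD.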

COC(=O)c1nn(-c2cccc(F)c2)c2c1N(C)S(=O)(=O)c1ccccc1-2
selectivity ratio [1]: 2
Kd (Hepatitis C virus [2]): > 300 µM

CS(=O)(=O)Nc1ccc(NC(=O)c2nn(-c3ccccc3)c3c2NS(=O)(=O)c2ccccc2-3)cc1
Kd (Hepatitis C virus [2]): 53 µM

CC(C)CCn1c(=O)c(C2=NS(=O)(=O)c3ccccc3N2)c(O)c2ccccc21
IC50 (Hepatitis C virus [3]): 0.085 µM

CN1c2c(C(=O)Nc3ccc(NS(C)(=O)=O)cc3)nn(-c3ccc(F)cc3)c2-c2ccccc2S1(=O)=O
IC50 (Hepatitis C virus [3]): 3.9 µM

CS(=O)(=O)Nc1ccc(NC(=O)c2nn(-c3ccccc3[N+](=O)[O-])c3c2NS(=O)(=O)c2ccccc2-3)cc1
Kd (Hepatitis C virus [2]): 35 µM
